Patent US10675286B2

Protein sequences, listed by entry. Tags and fused reporters are not part of them.
UniProt P48736, whole entry: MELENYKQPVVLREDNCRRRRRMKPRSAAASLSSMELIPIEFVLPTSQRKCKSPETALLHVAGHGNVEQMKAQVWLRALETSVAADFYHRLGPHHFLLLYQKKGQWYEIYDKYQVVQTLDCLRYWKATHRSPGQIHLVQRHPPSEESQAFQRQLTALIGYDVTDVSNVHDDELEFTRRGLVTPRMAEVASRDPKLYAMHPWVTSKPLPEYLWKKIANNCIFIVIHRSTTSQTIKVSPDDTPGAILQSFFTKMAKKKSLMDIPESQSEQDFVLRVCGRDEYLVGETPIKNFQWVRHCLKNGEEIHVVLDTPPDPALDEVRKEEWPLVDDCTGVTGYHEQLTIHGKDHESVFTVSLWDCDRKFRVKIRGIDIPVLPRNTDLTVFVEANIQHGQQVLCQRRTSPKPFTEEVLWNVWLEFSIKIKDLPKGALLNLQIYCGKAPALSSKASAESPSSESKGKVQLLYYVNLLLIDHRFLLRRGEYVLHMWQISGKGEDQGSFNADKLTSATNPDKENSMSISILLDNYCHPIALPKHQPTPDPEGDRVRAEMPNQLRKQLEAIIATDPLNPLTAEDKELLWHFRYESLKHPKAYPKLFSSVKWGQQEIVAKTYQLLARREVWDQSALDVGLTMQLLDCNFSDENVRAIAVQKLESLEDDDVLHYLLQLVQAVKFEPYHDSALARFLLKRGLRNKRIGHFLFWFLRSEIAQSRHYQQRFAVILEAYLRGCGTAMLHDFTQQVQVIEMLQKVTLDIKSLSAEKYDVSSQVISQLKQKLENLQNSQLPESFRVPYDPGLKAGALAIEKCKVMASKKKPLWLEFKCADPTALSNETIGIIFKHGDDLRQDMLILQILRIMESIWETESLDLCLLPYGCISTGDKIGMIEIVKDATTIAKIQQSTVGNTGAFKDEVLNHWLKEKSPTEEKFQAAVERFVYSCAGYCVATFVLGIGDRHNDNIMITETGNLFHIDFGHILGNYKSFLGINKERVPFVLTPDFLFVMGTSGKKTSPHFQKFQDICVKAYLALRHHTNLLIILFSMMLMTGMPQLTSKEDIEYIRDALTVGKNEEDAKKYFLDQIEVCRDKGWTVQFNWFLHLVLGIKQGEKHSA

Molecular target: PI3K γ (Homo sapiens (Human), UniProt P48736)
Experiment: PI3-Kinase Promega ADP-Glo Max assay, γ isoform
Assay type: biochemical

For `Cc1ccnc2c(C(=O)N[C@@H](C)c3cc4cccc(C#Cc5cnn(C)c5)c4c(=O)n3-c3ccccc3)c(N)nn12`, the “PI3K δ/PI3K γ IC50 (selectivity)” value was “X (X = 10 to <50)”.
